Laboratory results: PubChem BioAssay AID504577 (NMMLSC, 2011)
The entries are a selection whose mix differs from that of the whole data set. Some results for these compounds are left out of this collection, so the calls shown say nothing about other tests. Activity calls are given as the source filed them. Rule as the data show it: active = response mostly above about 7.3% (no sharp cut-off); inactive = mostly below about 5.4%.

Test: regulators of yeast V-ATPase proton pumping, primary screen, pHLuorin cytosolic pH fluorescence (AID 504577)
Conditions: S. cerevisiae, at 10 µM, active compounds read high

Row | SMILES | response
1 | O=C(NCC1(N2CCCCC2)CCCCC1)c1cc([N+](=O)[O-])ccc1Cl | inactive: 0.72%
2 | CN1[C@@H]2CC[C@H]1CC(OC(=O)C(O)(c1ccccc1)c1ccccc1)C2 (stereo partly specified) | inactive: 0.9%
3 | CCN(CC)CC(C)C(C)OC(=O)C(O)(c1ccccc1)c1ccccc1 (stereo unspecified) | inactive: 0.97%
4 | COc1cc(SC)ccc1C(=O)NCC1(N(C)C)CCCCC1 | inactive: 0.22%
5 | CC(C)N1C(=O)CC2(CCN(CCOC(=O)C(O)(c3ccccc3)c3ccccc3)CC2)C1=O | inactive: -0.87%
6 | Cc1ccc(C(=O)NCC2(N3CCCCC3)CCCCC2)cc1 | inactive: -1.8%
7 | Cc1ccccc1C(=O)NCC1(N2CCCCC2)CCCCC1 | inactive: -0.16%
8 | CN(C)C1CCCC1OC(=O)C(O)(c1ccccc1)c1ccccc1 (stereo unspecified) | inactive: -1.23%
9 | CN(C)c1ccc(C(=O)NCC2(N(C)C)CCCCC2)cc1 | inactive: -3.58%
10 | C=CCN1CCN(CCOC(=O)C(O)(c2ccccc2)c2ccccc2)CC1 | inactive: 1.81%
11 | O=C(NCC1(N2CCCCC2)CCCCC1)c1cc(F)c(F)cc1Cl | inactive: 5.33%
12 | COc1ccc(C(=O)NCC2(N(C)C)CCCCC2)cc1 | inactive: 1.05%
13 | Cc1cc(C(=O)NCC2(N3CCCCC3)CCCCC2)ccc1[N+](=O)[O-] | inactive: 1.99%
14 | CCN1CCCC(OC(=O)C2(O)c3ccccc3C=Cc3ccccc32)C1 (stereo unspecified) | inactive: 4.36%
15 | O=C(NCC1(N2CCCCC2)CCCCC1)c1cccc(Br)c1 | inactive: -1.45%
16 | CN(C)C1(CNC(=O)c2ccc(Br)cc2)CCCCC1 | inactive: 2.16%
17 | COc1cc(C(=O)NCC2(N(C)C)CCCCC2)c([N+](=O)[O-])cc1OC | inactive: -1.84%
18 | COc1cccc(C(=O)NCC2(N3CCCCC3)CCCCC2)c1 | inactive: -1.13%
19 | COc1ccc(Cl)cc1C(=O)NCC1(N(C)C)CCCCC1 | inactive: 2.94%
20 | O=C(NCC1(N2CCCCC2)CCCCC1)c1cccc(Cl)c1 | inactive: -1.97%
21 | O=C(OC1CN2CCC1CC2)C(CO)(c1ccccc1)c1ccccc1 (stereo unspecified) | inactive: -0.67%
22 | C=C(C)C#CC(O)(C(=O)OC1CCN(C)CC1)c1ccccc1 (stereo unspecified) | inactive: -3.11%
23 | COc1ccc(Br)c(C(=O)NCC2(N3CCCCC3)CCCCC2)c1 | inactive: 2.09%
24 | CC(C)Oc1ccc(C(=O)NCC2(N(C)C)CCCCC2)cc1 | inactive: -3.77%
25 | O=C(OCCN1CCCC1)C(O)(c1ccccc1)c1ccccc1 | inactive: -3.18%
26 | CN(C)c1cccc(C(=O)NCC2(N(C)C)CCCCC2)c1 | inactive: -0.85%
